From patent US6423729B1, “Therapeutic or prophylactic agent for glomerulopathy” (Shionogi & Co., Ltd., priority 1997, dated 2002)

By UniProt entry, the sequences of proteins in these tests, tags left out. Residues count along the entry.
UniProt P08253, 110-660 limits assumed: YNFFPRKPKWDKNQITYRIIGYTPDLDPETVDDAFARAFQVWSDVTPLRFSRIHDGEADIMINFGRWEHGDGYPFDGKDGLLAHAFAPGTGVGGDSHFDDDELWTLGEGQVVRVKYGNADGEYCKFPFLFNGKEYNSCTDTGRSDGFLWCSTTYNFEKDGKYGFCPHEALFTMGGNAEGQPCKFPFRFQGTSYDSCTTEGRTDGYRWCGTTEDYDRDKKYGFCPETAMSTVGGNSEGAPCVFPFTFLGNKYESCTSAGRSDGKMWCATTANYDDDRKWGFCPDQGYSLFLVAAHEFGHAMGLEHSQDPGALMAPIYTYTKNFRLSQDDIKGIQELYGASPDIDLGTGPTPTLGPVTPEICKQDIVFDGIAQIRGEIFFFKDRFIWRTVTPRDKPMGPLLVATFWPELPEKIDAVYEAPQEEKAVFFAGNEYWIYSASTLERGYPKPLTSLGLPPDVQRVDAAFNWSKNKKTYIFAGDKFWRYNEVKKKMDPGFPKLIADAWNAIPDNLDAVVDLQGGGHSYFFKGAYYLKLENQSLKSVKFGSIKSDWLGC
UniProt P14780, 107-707 limits assumed: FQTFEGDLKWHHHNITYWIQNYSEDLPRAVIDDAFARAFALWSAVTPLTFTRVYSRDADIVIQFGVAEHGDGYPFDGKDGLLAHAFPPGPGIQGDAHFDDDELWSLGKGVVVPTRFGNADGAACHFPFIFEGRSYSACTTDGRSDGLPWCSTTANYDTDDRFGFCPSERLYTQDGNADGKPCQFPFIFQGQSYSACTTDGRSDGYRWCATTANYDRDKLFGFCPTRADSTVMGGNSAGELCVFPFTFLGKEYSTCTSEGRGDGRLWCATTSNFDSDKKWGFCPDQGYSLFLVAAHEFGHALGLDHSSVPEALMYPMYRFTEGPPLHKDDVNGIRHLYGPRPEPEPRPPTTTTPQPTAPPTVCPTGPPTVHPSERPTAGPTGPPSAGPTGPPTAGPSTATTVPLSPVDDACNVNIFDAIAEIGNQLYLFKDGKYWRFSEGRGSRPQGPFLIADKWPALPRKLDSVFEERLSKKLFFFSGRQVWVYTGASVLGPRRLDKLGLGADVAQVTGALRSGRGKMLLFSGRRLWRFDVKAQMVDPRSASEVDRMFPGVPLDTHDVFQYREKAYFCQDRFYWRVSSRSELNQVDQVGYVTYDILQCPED

How the values were obtained:
MMP-2 = MMP-2 (Homo sapiens, UniProt P08253); test: Assay for inhibitory activity against MMP-2; settings: read-out: IC50 (MMP-2)
Experimental: (§1) Assay for Inhibitory Activities of MMP-9 and MMP-2
(§2) The enzymatic activity was analyzed on the method described by Knight, C. G., et al. (C. Graham Knight., Frances Willenbrock and Gillian Murphy: A novel coumarin-labelled peptide for sensitive continuous assays of the matrix metalloproteinases. FEBS Lett., 296 (1992) 263-266).
MMP-2 was purchased from Yagai (Yamagata pref., Japan).
MOCAc-Pro-Leu-Gly-Leu-A2pr(Dnp)-Ala-Arg-NH2 as a substrate was purchased from Petide Institute(Osaka pref., Japan). This substrate was dissolved in DMSO at a concentration of 1 mM.
Reaction buffer consists of 50 mM Tris-HCl buffer (pH 7.5) containing 10 mM CaCl2, 0.3 M NaCl, 0.005% Brij35 and 0.01% NaN3.
Assay Method of Inhibitory Activity Against MMP-2:
(§3) 1.0 μl of a tested compound in DMSO is added to 48.0 μl of a reaction buffer containing 0.05 μl of an enzyme solution. After standing for 60 minutes at room temperature, the reaction was started by adding 1.0 μl of a substrate solution. After incubation for 60 minutes at room temperature, 100 μl of 3% (v/v) AcOH for reaction stopping and measured a fluorescence with excitation and emission at 320 nm and 405 nm, respectively (Spectrophotofluorometer; Fluoroscan Ascent (Labsystem)). […]
(§4) IC50 values were calculated by using a following formula and each fluorescence values of above four methods (A to D). […]

MMP-9 = MMP-9 (Homo sapiens, UniProt P14780); test: Assay for inhibitory activity against MMP-9; settings: read-out: IC50 (MMP-9)
Experimental: as §1, §2
MMP-9 was purified by using a combination of procedures described in previous reports as follows. Yasunori Okada, Yukio Gonoji, Katsumi Naka, Katsuro Tomita, Isao Nakanishi, Kazushi Iwata and Taro Hayakawa: Matrix metalloproteinase 9 (92-kDa gelatinase/type IV collagenase) from HT1080 human fibrosarcoma cells. Purification and activation of the precursor and enzymic properties. J. Biol. Chem., 267 (1992) 21712-21719. […]
as §3, with “0.08” for “0.05”, “After standing for 60 minutes at room temperature, the reaction was started by adding 1.0 μl of a substrate solution.” left out
as §4

- IC50 (MMP-2): 12.2 nM
- IC50 (MMP-9): 94 nM
SMILES: CCc1ccc(-c2nnn(-c3ccc(S(=O)(=O)NCC(=O)O)cc3)n2)cc1
